Data on five compounds can be found in ChEMBL document CHEMBL5518194, “An 19F NMR fragment-based approach for the discovery and development of BRCA2-RAD51 inhibitors to pursuit synthetic lethality in combination with PARP inhibition in pancreatic cancer” (Eur J Med Chem, 2024).

The subject of experiment [1] is BXPC-3. The experiment can be described thus: Inhibition of homologous recombination in human BXPC-3 cells at 20 uM incubated for 5 hrs by real-time PCR analysis relative to control. The format is functional.
The test system of experiment [2] is BXPC-3. The experiment can be described thus: Inhibition of homologous recombination in human BXPC-3 cells at 350 uM incubated for 5 hrs by real-time PCR analysis relative to control. The format is functional. (In general: In qPCR the cycle at which signal appears reflects the starting amount.)
In experiment [3] the test system is Pancreatic cancer organoid. The experiment can be described thus: Induction of DNA damage in patient derived PT291 pancreatic ductal adenocarcinoma organoid assessed as increase in gamma-H2AX fluorescence intensity at 2 uM incubated for 24 hrs by immunofluorescence analysis. In kind it is functional, tissue-based. Particulars: Homo sapiens.

The source made the active and inactive calls. The calls are words filed in the database; no cut-off is given here.

As for `Cc1cc(=O)n2nc(C(F)(F)F)cc2[nH]1`, the inhibition result in the experiment on BXPC-3 [1] and in the experiment on BXPC-3 [2] was “inactive” in each case. Take `Cn1ncnc1[C@H]1c2n[nH]c(=O)c3cc(F)cc(c23)N[C@@H]1c1ccc(F)cc1`: the result in experiment [3] was inactive.

On to `Cc1ccc(-c2cc(=O)n3nc(C(F)(F)F)cc3[nH]2)cc1`, for which the inhibition entry in the experiment with BXPC-3 [1] is “inactive”. As to `CCc1cc2[nH]c(-c3ccc(C)cc3)cc(=O)n2n1`, in the experiment on BXPC-3 [1], the inhibition entry was “inactive”. Take `Cc1nc2[nH]c(-c3ccc([N+](=O)[O-])cc3)cc(=O)n2n1`: the inhibition entry in the experiment with BXPC-3 [1] and with BXPC-3 [2] was “inactive” each time.
